## AlphaSeq binding of Ab-14 heavy chain variants to a spike HR2 peptide

Target: peptide PDVDLGDISGINAS, taken from heptad repeat 2 (HR2) of SARS-CoV-2 spike.

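The parent was found by panning a naive human phage display library on the peptide. The library (AAYL49) carries one to three amino acid substitutions per variant, with no insertions or deletions. The assay is AlphaSeq: two haploid yeast populations carry antibody and antigen on their surface. Pairs that bind mate more often; barcode pairs of the diploids are counted by sequencing. Read counts were normalised to the haploid input and turned into Kd by a linear fit to BCL2-family pairs of known affinity, for each replicate. There are three technical replicates.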

Each scFv is VH, the linker GGGGSGGGGSGGGGS, VL, as in the parent Ab-14, and differs from it in the CDRs of the heavy chain only.
VH: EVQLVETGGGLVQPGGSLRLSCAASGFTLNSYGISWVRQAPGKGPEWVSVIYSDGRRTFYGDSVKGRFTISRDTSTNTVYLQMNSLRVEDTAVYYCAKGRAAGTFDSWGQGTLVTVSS
VL: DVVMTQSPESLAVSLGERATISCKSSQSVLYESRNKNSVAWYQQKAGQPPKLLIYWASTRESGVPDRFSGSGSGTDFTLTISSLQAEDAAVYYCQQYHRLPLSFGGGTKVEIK

Sequences are complete VH domains.
Every variant below is changed at T28 of the VH (sequential numbering).
Values are log10 of the apparent Kd in nM; lower means stronger binding.
Where no diploid with the target was found in that replicate, the entry reads "n.d.": below detection, most likely a poor binder, though not proof of it.

VH,"log10 Kd, replicates"
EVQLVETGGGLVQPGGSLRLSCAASGFYLNSYGWSWVRQAPGKGPEWVSVIYSDGRRTFYGDSVDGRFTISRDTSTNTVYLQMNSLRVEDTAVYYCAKGRAAGTFDSWGQGTLVTVSS,n.d. 3.76 n.d.
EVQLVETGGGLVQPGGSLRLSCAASGFELNSYYLSWVRQAPGKGPEWVSVIYSDGRRTFYGDSVKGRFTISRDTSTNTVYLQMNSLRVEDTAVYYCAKGRAAGTFDSWGQGTLVTVSS,n.d. n.d. n.d.
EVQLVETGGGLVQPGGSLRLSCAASGFFLNSYGISWVRQAPGKGPEWVSVIYSDGRRTFYGDQVKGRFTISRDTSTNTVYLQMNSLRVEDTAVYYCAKCRAAGTFDSWGQGTLVTVSS,4.17 n.d. n.d.
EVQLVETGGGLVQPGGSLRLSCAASGFLLNSYGISWVRQAPGKGPEWVSVNYSDGRRTFYGDSVKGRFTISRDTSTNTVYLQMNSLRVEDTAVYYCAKGRAAGTMDSWGQGTLVTVSS,n.d. n.d. n.d.
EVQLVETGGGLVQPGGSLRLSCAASGFFLNSQGISWVRQAPGKGPEWVSVIYSDGRRTFYGDSVKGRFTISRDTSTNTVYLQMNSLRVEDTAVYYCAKGDAAGTFDSWGQGTLVTVSS,2.32 2.53 2.21
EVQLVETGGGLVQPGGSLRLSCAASGPHLNSYGISWVRQAPGKGPEWVSGIYSDGRRTFYGDSVKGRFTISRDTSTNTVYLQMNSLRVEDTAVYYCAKGRAAGTFDSWGQGTLVTVSS,n.d. n.d. 5.05
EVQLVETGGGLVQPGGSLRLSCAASPFELNSYGISWVRQAPGKGPEWVSVIYSDGRRTFYGDSVKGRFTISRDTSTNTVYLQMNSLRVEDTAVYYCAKGRAAGTFDSWGQGTLVTVSS,3.24 2.28 2.57
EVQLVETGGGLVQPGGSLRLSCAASGFYLNSYGISWVRQAPGKGPEWVSVIYSDGRRTFYGYSVKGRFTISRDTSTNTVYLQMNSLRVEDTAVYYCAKGRAAGTFDSWGQGTLVTVSS,n.d. n.d. n.d.
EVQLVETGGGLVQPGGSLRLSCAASGFGLNSYGISWVRQAPGKGPEWVSVIYSDIRRTFYGYSVKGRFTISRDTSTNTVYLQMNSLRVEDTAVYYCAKGRAAGTFDSWGQGTLVTVSS,n.d. 3.50 n.d.
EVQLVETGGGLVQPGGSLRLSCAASGFDLNSYGISWVRQAPGKGPEWVSVIYSDGRRTFIGDSVKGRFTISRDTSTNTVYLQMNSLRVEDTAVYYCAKGRAAGTFDSWGQGTLVTVSS,1.09 2.40 1.03
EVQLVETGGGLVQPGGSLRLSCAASGFILNSYGISWVRQAPGKGPEWVSVIYSDGRRTFYGDSVKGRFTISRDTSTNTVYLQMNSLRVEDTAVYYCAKNRAEGTFDSWGQGTLVTVSS,4.20 4.90 n.d.
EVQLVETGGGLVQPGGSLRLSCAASTFYLNSYGISWVRQAPGKGPEWVSVIYSDGRRTFYGDSVKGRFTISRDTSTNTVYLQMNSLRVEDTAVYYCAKGRAAGTFDSWGQGTLVTVSS,3.70 3.01 n.d.
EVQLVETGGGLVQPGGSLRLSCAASGFNLYSYGISWVRQAPGKGPEWVSVIASDGRRTFYGDSVKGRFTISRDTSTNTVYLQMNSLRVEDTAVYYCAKGRAAGTFDSWGQGTLVTVSS,2.43 4.87 3.35
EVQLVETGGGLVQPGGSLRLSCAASGFFLNSYGISWVRQAPGKGPEWVSVIYSDGRRTFYGDSVKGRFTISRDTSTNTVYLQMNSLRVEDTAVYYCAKGRAAGTFDSWGQGTLVTVSS,1.39 1.27 1.18
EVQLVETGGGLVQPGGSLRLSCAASGFRLNSYRISWVRQAPGKGPEWVSVAYSDGRRTFYGDSVKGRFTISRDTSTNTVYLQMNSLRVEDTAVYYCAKGRAAGTFDSWGQGTLVTVSS,n.d. n.d. 4.41
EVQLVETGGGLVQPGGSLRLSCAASGFILNSYGISWVRQAPGKGPEWVSVIYSDGRRTFYGDSNKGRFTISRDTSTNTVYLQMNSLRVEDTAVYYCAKGRAAGTFDRWGQGTLVTVSS,n.d. 4.88 n.d.
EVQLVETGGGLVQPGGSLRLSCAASGFVLNSYDISWVRQAPGKGPEWVSVIYSDGRRTFYGKSVKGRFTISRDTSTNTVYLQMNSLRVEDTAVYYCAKGRAAGTFDSWGQGTLVTVSS,4.46 3.90 3.74
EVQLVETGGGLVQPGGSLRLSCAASGFFLNNYGISWVRQAPGKGPEWVSVIYSDGRRTFYGDSVKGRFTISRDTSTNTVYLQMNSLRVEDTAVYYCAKGRAAGTFDSWGQGTLVTVSS,1.29 1.44 1.96
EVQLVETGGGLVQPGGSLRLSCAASGFGLNDYGISWVRQAPGKGPEWVSVIYSDGRRTHYGDSVKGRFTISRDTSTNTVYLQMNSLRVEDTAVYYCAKGRAAGTFDSWGQGTLVTVSS,0.25 0.59 0.48
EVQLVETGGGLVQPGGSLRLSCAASGFGLNSYCISWVRQAPGKGPEWVSVIYSDGRRTCYGDSVKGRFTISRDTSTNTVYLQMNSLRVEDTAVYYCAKGRAAGTFDSWGQGTLVTVSS,1.10 1.34 1.56
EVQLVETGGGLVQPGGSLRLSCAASGFQLNSYGISWVRQAPGKGPEWVSVTYSDGRFTFYGDSVKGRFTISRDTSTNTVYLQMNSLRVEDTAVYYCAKGRAAGTFDSWGQGTLVTVSS,3.24 n.d. 4.24
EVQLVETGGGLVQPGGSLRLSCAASGFELNSYGISWVRQAPGKGPEWVSVIYSDGRRTFYGDSVKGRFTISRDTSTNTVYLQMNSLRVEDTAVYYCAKGPAAGTFDSWGQGTLVTVSS,n.d. n.d. n.d.
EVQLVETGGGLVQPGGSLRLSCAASGFLLNSYGISWVRQAPGKGPEWVSVIYSDGRRTFNGDSVKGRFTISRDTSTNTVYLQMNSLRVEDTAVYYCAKGRAAGTFDSWGQGTLVTVSS,n.d. 3.98 n.d.
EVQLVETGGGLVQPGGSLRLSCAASGFMLNSYGISWVRQAPGKGPEWVSVIYSDGRRTFYGDSVKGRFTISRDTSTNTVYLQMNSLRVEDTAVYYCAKGFAAGTFMSWGQGTLVTVSS,n.d. n.d. n.d.

The last 3 entries again:

VH,"log10 Kd, replicates"
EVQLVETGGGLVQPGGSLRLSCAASGFELNSYGISWVRQAPGKGPEWVSVIYSDGRRTFYGDSVKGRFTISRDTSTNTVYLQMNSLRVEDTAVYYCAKGPAAGTFDSWGQGTLVTVSS,n.d. n.d. n.d.
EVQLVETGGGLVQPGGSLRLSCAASGFLLNSYGISWVRQAPGKGPEWVSVIYSDGRRTFNGDSVKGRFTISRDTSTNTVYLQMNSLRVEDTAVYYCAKGRAAGTFDSWGQGTLVTVSS,n.d. 3.98 n.d.
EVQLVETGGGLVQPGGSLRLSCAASGFMLNSYGISWVRQAPGKGPEWVSVIYSDGRRTFYGDSVKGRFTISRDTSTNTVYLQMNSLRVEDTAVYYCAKGFAAGTFMSWGQGTLVTVSS,n.d. n.d. n.d.

Empty control strains, which show no peptide, gave a signal in 15% of pairings with library AAYL49; the median was 4.06 and 95% of these signals were weaker than 2.83. No background was subtracted.
In this assay the parent's reference entry averaged 0.65; its copy inside this library read 4.11 (one replicate of three).

From the AlphaSeq antibody data of Engelhart et al. 2022 (doi:10.1038/s41597-022-01779-4), copy in the FLAb collection.